Source: IntAct's records for PubMed 25525273

B1: Cerebral cavernous malformations 2 protein (Homo sapiens), Q9BSQ5 (parent)
chain: MEEEGKKGKKPGIVSPFKRVFLKGEKSRDKKAHEKVTERRPLHTVVLSLPERVEPDRLLSDYIEKEVKYLGQLTSIPGYLNPSSRTEILHFIDNAKRAHQLPGHLTQEHDAVLSLSAYNVKLAWRDGEDIILRVPIHDIAAVSYVRDDAAHLVVLKTAQDPGISPSQSLCAESSRGLSAGSLSESAVGPVEACCLVILAAESKVAAEELCCLLGQVFQVVYTESTIDFLDRAIFDGASTPTHHLSLHSDDSSTKVDIKETYEVEASTFCFPESVDVGGASPHSKTISESELSASATELLQDYMLTLRTKLSSQEIQQFAALLHEYRNGASIHEFCINLRQLYGDSRKFLLLGLRPFIPEKDSQHFENFLETIGVKDGRGIITDSFGRHRRALSTTSSSTTNGNRATGSSDDRSAPSEGDEWDRMISDISSDIEALGCSMDQDSA

Key:
[1] = variants of: B1; conditions: with krit1_human KRIT1, O00522
[2] = variants of: B1; conditions: with krit1_human KRIT1, O00522; remark: listed apart in the source

MEEEGKKGKKPGIVSPFKRVFLKGEKSRDKKAHEKVTERRPLHTVVLSLPERVEPDRLLSDYIEKEVKYLGQLTSIPGYLNPSSRTEILHFIDNAKRAHQLPGHLTQEHDAVLSLSAYNVKLAWRDGEDIILRVPAHDAAAVSYVRDDAAHLVVLKTAQDPGISPSQSLCAESSRGLSAGSLSESAVGPVEACCLVILAAESKVAAEELCCLLGQVFQVVYTESTIDFLDRAIFDGASTPTHHLSLHSDDSSTKVDIKETYEVEASTFCFPESVDVGGASPHSKTISESELSASATELLQDYMLTLRTKLSSQEIQQFAALLHEYRNGASIHEFCINLRQLYGDSRKFLLLGLRPFIPEKDSQHFENFLETIGVKDGRGIITDSFGRHRRALSTTSSSTTNGNRATGSSDDRSAPSEGDEWDRMISDISSDIEALGCSMDQDSA [I136A;I139A]
effect of a mutation on the interaction [1]: disrupting interaction strength
effect of a mutation on the interaction [2]: decreasing interaction strength

MEEEGKKGKKPGIVSPFKRVFLKGEKSRDKKAHEKVTERRPLHTVVLSLPERVEPDRLLSDYIEKEVKYLGQLTSIPGYLNPSSRTEILHFIDNAKRAHQLPGHLTQEHDAVLSLSAYNVKLAWRDGEDIILRVPIHDIAAVSYVRDDAAHLVVLKTAQDPGISPSQSLCAESSRGLSAGSLSESAVGPVEACCLVILAAESKVAAEELDCLLGQVFQVVYTESTIDFLDRAIFDGASTPTHHLSLHSDDSSTKVDIKETYEVEASTFCFPESVDVGGASPHSKTISESELSASATELLQDYMLTLRTKLSSQEIQQFAALLHEYRNGASIHEFCINLRQLYGDSRKFLLLGLRPFIPEKDSQHFENFLETIGVKDGRGIITDSFGRHRRALSTTSSSTTNGNRATGSSDDRSAPSEGDEWDRMISDISSDIEALGCSMDQDSA [C210D]
effect of a mutation on the interaction [1]: disrupting interaction strength
effect of a mutation on the interaction [2]: decreasing interaction strength

MEEEGKKGKKPGIVSPFKRVFLKGEKSRDKKAHEKVTERRPLHTVVLSLPERVEPDRLLSDYIEKEVKYLGQLTSIPGYLNPSSRTEILHFIDNAKRAHQLPGHLTQEHDAVLSLSAYNVKLAWRDGEDIILRVPIHDIAAVSYVRDDAAHLVVLKTAQDPGISPSQSLCAESSRGLSAGSLSESAVGPVEACCLVILAAESKVAAEELCCLLGQVAQVVYTESTIDFLDRAIFDGASTPTHHLSLHSDDSSTKVDIKETYEVEASTFCFPESVDVGGASPHSKTISESELSASATELLQDYMLTLRTKLSSQEIQQFAALLHEYRNGASIHEFCINLRQLYGDSRKFLLLGLRPFIPEKDSQHFENFLETIGVKDGRGIITDSFGRHRRALSTTSSSTTNGNRATGSSDDRSAPSEGDEWDRMISDISSDIEALGCSMDQDSA [F217A]
effect of a mutation on the interaction [2]: decreasing interaction strength
